Values of other authors, collected in PMC11339341.
Read-outs that look alike come from different tables or passages of the source.

Chains of the proteins cited; added tags and fusions are not shown. Residues count along the entry.
UniProt P19235, 25-250: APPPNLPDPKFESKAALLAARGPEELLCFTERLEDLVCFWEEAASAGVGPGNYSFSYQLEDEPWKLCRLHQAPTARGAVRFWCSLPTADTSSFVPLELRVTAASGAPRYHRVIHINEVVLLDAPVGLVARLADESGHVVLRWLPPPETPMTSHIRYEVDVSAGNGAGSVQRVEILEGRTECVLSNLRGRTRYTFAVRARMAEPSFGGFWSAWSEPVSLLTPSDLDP
UniProt P01589, 22-240, chain 1 of 3: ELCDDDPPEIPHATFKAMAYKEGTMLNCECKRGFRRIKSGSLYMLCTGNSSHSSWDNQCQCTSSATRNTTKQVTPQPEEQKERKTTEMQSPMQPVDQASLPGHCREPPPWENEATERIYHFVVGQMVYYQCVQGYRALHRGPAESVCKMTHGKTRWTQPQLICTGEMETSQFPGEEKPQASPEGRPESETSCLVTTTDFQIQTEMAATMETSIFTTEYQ

Key:
[1] = biological target: Erythropoietin receptor (Homo sapiens) (UniProt P19235)
[2] = biological target: Erythropoietin receptor (Homo sapiens) (UniProt P19235); remark: listed apart in the source
[3] = biological target: IL-2Rα:IL-2Rβ:γc (Homo sapiens) (UniProt P01589)

Erythropoietin site 2 (from UniProt P01588)
Kd [1]: 1000 nM

Erythropoietin site 1 (from UniProt P01588)
Kd [2]: 1 nM

IL-2 (from UniProt P60568)
Kd [3]: 0.01 nM
